Where a name gives a salt, the structure may show the parent alone.

Chains of the proteins cited; added tags and fusions are not shown. Residues count along the entry.
UniProt O00187, 297-444: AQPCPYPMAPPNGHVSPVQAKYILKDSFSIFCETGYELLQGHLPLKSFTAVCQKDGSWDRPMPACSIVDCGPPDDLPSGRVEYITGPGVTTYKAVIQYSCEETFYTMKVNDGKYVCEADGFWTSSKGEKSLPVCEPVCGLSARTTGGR
UniProt O00187, 445-686: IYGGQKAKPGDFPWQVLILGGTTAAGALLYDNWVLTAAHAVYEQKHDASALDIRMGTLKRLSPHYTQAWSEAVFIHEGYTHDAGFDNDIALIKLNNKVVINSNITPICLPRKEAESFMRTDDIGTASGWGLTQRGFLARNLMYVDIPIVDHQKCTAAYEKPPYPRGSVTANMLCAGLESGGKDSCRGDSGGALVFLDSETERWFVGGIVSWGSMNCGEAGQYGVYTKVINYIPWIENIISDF
UniProt Q9JJS8, 444-685: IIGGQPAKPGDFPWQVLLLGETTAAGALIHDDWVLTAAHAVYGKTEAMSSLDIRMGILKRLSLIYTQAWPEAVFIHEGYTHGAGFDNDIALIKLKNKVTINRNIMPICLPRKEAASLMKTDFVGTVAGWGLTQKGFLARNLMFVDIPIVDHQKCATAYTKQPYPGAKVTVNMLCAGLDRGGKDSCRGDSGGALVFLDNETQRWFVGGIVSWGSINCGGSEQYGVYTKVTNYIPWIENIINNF
UniProt Q9JJS8, 296-443: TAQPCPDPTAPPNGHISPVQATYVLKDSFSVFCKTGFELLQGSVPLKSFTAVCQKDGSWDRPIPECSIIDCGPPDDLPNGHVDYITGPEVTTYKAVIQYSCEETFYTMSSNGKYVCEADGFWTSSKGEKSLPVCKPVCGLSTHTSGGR

Among the data in US11667675B2, “MASP inhibitory compounds and uses thereof” (Bayer Aktiengesellschaft, priority 2019, dated 2023) are IC50 values, retold here.

One assay addresses T1, human MASP1 (Homo sapiens, UniProt P48740).
T1 construct: Ig-kappa secretion signal (N, cleaved yes); made in house; host or cells: HEK293 (ATCC No. CRL-1573)
T1 sequence (P48740 297-448): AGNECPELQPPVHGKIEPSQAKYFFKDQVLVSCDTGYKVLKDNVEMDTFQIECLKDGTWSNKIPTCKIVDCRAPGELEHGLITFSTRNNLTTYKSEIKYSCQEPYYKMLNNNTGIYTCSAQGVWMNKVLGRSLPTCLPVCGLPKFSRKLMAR
T1 sequence (P48740 449-699): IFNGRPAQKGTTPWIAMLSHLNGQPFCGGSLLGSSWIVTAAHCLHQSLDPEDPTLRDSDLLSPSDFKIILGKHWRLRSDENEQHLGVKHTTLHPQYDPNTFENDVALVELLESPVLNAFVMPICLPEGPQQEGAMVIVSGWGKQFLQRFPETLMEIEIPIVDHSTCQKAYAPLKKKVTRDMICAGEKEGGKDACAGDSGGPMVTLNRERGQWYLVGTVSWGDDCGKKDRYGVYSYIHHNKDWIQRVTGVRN
Briefly: Biochemical human MASP1 assay (FRET substrate). Conditions: average IC50. An excerpt:
(§1) 2.1 Recombinant Expression and Protein Production of Recombinant Human MASP1 and MASP2 Active Proteases.
(§2) The MASP1 or MASP2 expression vectors were transfected into the HEK293 (ATCC No. CRL-1573) cell line using Lipofectamine LTX® Reagent (Thermo-Fischer), as described by the manufacturer. […] The MASP1 and MASP2 proteins were purified from the conditioned media by affinity chromatography on Ni-NTA Superflow resin (Qiagen) as described by the manufacturer.
2.2 Biochemical Human MASP1 Assay
(§3) Recombinant human MASP1 enzyme produced in the HEK 293 cells was diluted in the reaction buffer (50 mM HEPES pH 8,0; 100 mM NaCl; 0.01% CHAPS; 0.5 mM Gluthathione) to the concentration of 20 nM and 25 μl was transferred into each single well of 384-well white microtiter plate (Greiner Bio One 781075). 1 μl of the inhibitor compound solution (dissolved in DMSO, at the corresponding concentration) or pure DMSO as a control was added to the same wells. […] The microtiter plate was incubated for 60-120 min at the temperature of 32 C. The increase of fluorescence intensity was measured in appropriate fluorescence plate reader (e.g. TECAN Ultra) using excitation wavelength of 320 nm and emission wavelength of 420 nm. IC50 values were calculated from percentage of inhibition of human MASP1 activity as a function of test compound concentration.

The next assay deals with T2, human MASP2 (Homo sapiens, UniProt O00187).
T2 construct: Ig-kappa secretion signal (N, cleaved yes); made in house; host or cells: HEK293 (ATCC No. CRL-1573)
Description: Biochemical human MASP2 assay (FRET substrate). Conditions: average IC50.
Text: as §1, §2
2.3 Biochemical Human MASP2 Assay
as §3, with “MASP2” for “MASP1”, “340” for “320”, “490” for “420”

In another assay the target is T3, rat MASP1 (Rattus norvegicus, UniProt Q8CHN8).
T3 construct: Ig-kappa secretion signal (N, cleaved yes); made in house; host or cells: HEK293 (ATCC No. CRL-1573)
T3 sequence (Q8CHN8 302-453 limits assumed): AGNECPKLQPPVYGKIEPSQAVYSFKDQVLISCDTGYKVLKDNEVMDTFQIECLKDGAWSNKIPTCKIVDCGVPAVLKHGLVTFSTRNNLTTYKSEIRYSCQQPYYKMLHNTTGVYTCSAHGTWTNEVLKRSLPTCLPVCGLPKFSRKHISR
T3 sequence (Q8CHN8 454-704 limits assumed): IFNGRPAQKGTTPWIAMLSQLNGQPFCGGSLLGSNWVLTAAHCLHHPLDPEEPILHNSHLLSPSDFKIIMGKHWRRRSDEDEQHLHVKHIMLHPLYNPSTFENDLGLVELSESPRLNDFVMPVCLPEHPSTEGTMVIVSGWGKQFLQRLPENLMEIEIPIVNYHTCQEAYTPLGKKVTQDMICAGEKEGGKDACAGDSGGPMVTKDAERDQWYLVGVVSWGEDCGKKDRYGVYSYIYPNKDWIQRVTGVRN
Briefly: Biochemical rat MASP1 assay (FRET substrate). Conditions: average IC50; recombinant rat MASP1, FRET substrate. An excerpt:
(§4) 4. Biochemical Rat MASP-1 and MASP-2 Assay
(§5) 4.1 Recombinant Expression and Protein Production of Recombinant Human and Rat MASP1 and MASP2 Active Proteases.
A truncated cDNA sequence of rat MASP1 encoding the fragment corresponding to the amino acids 302-704 with an C-terminal His Tag and N-terminal Ig-kappa secretion signal (SEQ ID No: 4) was subcloned into the mammalian expression vector pcDNA3.1 (Invitrogen).
(§6) The MASP1 or MASP2 expression vectors were transfected into the HEK293 (ATCC No. CRL-1573) cell line using Lipofectamine LTX® Reagent (Thermo-Fischer), as described by the manufacturer. The mature form of the recombinant rat MASP1 and MASP2 proteases were secreted into the culture medium. The MASP1 and MASP2 proteins were purified from the conditioned media by affinity chromatography on Ni-NTA Superflow resin (Qiagen) as described by the manufacturer.
4.2 Biochemical Rat MASP1 Assay.
Recombinant rat MASP1 enzyme produced in the HEK 293 cells was diluted in the reaction buffer (50 mM HEPES pH 8,0; 100 mM NaCl; 0.01% CHAPS; 0.5 mM Gluthathione) to the concentration of 4 nM and 25 μl was transferred into each single well of 384-well white microtiter plate (Greiner Bio One 781075). 1 μl of the inhibitor compound solution (dissolved in DMSO, at the corresponding concentration) or pure DMSO as a control was added to the same wells. The enzymatic reaction was initiated by addition of 25 μl of 40 μM solution of the FRET substrate Dabcyl-[…]-Glu(Edans)-NH2 (SEQ ID NO: 8); (Dabcyl—4-((4-(dimethylamino)phenyl)azo)benzoic acid; Edans—5-[(2-Aminoethyl) amino]naphthalene-1-sulfonyl; custom synthesis by Jerini Peptide Technologies, Berlin) in the reaction buffer. The microtiter plate was incubated for 60-120 min at the temperature of 32 C. The increase of fluorescence intensity was measured in appropriate fluorescence plate reader (e.g. TECAN Ultra) using excitation wavelength of 340 nm and emission wavelength of 490 nm. IC50 values were calculated from percentage of inhibition of rat […] activity as a function of test compound concentration.

A further assay deals with T4, rat MASP2 (Rattus norvegicus, UniProt Q9JJS8).
T4 construct: Ig-kappa secretion signal (N, cleaved yes); made in house; host or cells: HEK293 (ATCC No. CRL-1573)
Briefly: Biochemical rat MASP2 assay (FRET substrate). Conditions: average IC50; recombinant rat MASP2, FRET substrate.
Text: as §4, §5
A truncated cDNA sequence of rat MASP2 encoding the fragment corresponding to the amino acids 296-685 with a C-terminal His Tag and N-terminal Ig-kappa secretion signal (SEQ ID No: 5) was subcloned into the mammalian expression vector pcDNA3.1 (Invitrogen).
as §6
4.3 Biochemical Rat MASP2 Assay.
Recombinant rat MASP2 enzyme produced in the HEK 293 cells was diluted in the reaction buffer (50 mM HEPES pH 8,0; 100 mM NaCl; 0.01% CHAPS; 0.5 mM Gluthathione) to the concentration of 20 nM and 25 μl was transferred into each single well of 384-well white microtiter plate (Greiner Bio One 781075). 1 μl of the inhibitor compound solution (dissolved in DMSO, at the corresponding concentration) or pure DMSO as a control was added to the same wells. The enzymatic reaction was initiated by addition of 25 μl of 30 μM solution of the FRET substrate Abz-IEGRTSED-(Lys)Dnp-NH2 (SEQ ID NO: 9); (ABZ—2-aminobenzoyl; DNP_2,4-dinitrophenyl; custom synthesis by Jerini Peptide Technologies, Berlin) in the reaction buffer. The microtiter plate was incubated for 60-120 min at the temperature of 32 C. The increase of fluorescence intensity was measured in appropriate fluorescence plate reader (e.g. TECAN Ultra) using excitation wavelength of 320 nm and emission wavelength of 420 nm. IC50 values were calculated from percentage of inhibition of rat […] activity as a function of test compound concentration.

For the compound “N-[(5aS,11S,14S,17S,20S,23R,28R,31S,33aS)-31-[(2S)-butan-2-yl]-17-(3-carbamimidamidopropyl)-11-(2,2-dimethylpropyl)-14,20-bis(hydroxymethyl)-27,27-dimethyl-23-({N-[(morpholin-4-yl)acetyl]-L-isoleucyl}amino)-5,10,13,16,19,22,30,33-octaoxooctacosahydro-1H,5H,10H-dipyrrolo[2,1-j:2′,1′][1,2,5,8,11,14,17,20,23,26]dithiaoctaazacyclononacosine-28-carbonyl]-L-isoleucyl-L-prolyl-L-alpha-asparagine [Example 283]”, the IC50 on human MASP1 is 0.015 µM; on human MASP2 it was 0.042 µM. As to “AIC+SRS-((tBu)A)-PPI-((N-Me)C)+IPD-NH2 (HCl Salt) [Example 30]”, the IC50 was 0.028 µM on rat MASP1, 0.00153 µM on human MASP1 and 0.14 µM on human MASP2.

Turning to “((N-Me)G)-IC+SRSLP-(Oic)-I-(Pen)+IPD-NH2 [Example 165]”, the IC50 worked out at 0.00405 µM against human MASP1 and 0.15 µM on human MASP2. On human MASP1, `CC[C@H](C)[C@H](NC(=O)CNC)C(=O)N[C@H]1CSSC(C)(C)[C@@H](C(=O)N[C@H](C(=O)N2CCC[C@H]2C(=O)NCCOCCOCCOCCOCCOCCOCCOCCOCCOCCC(N)=O)[C@@H](C)CC)NC(=O)[C@H]([C@@H](C)CC)NC(=O)[C@@H]2CCCN2C(=O)[C@@H]2CCCN2C(=O)[C@H](CC(C)(C)C)NC(=O)[C@H](CO)NC(=O)[C@H](CCCNC(=N)N)NC(=O)[C@H](CO)NC1=O` [Example 44, ((N-Me)G)-IC+SRS-((tBu)A)-PPI-(Pen)+IP-(PEG9(31 Atoms))-NH2] showed an IC50 of 0.0018 µM.

In the case of “AIC+SRSLP-(Oic)-I-(Pen)+IPD-NH2 [Example 27]”, the IC50 is 0.00981 µM at rat MASP1, 0.0015 µM on human MASP1, 0.14 µM against human MASP2 and 0.0091 µM at rat MASP2. The compound `CCC(C)[C@H](NC(=O)[C@H]1NC(=O)[C@H]([C@@H](C)CC)NC(=O)[C@@H]2C[C@@H]3CCCC[C@@H]3N2C(=O)[C@@H]2CCCN2C(=O)[C@H](CC(C)C)NC(=O)[C@H](CO)NC(=O)[C@H](CCCNC(=N)N)NC(=O)[C@H](CO)NC(=O)[C@@H](NC(=O)[C@@H](NC(=O)[C@H](C)NC)[C@@H](C)CC)CSSC1(C)C)C(=O)N1CCC[C@H]1C(=O)N[C@@H](CC(=O)NCc1ccccc1)C(N)=O` (stereo in doubt) [Example 462] came in with an IC50 against human MASP2 of 0.13 µM. Still for that read-out and setting: the figure for `CC[C@H](C)[C@H](NC(=O)[C@H](C)N)C(=O)N[C@H]1CSSC(C)(C)[C@@H](C(=O)N[C@H](C(=O)N2CCC[C@H]2C(=O)N[C@@H](CC(=O)O)C(N)=O)[C@@H](C)CC)NC(=O)[C@H]([C@@H](C)CC)NC(=O)[C@@H]2C[C@@H]3CCCC[C@@H]3N2C(=O)[C@@H]2CCCN2C(=O)[C@H](CC(C)C)NC(=O)[C@H](CO)NC(=O)[C@H](CCCNC(=N)N)NC(=O)[C@H](CO)NC1=O` [Example 75, AIC+SRSLP-(Oic)-I-(Pen)+IPD-NH2] is 0.15 µM. On the same count and under the same terms, next, `CC[C@H](C)[C@H](NC(=O)[C@H](C)N)C(=O)N[C@H]1CSSC(C)(C)[C@@H](C(=O)N[C@H](C(=O)N2CCC[C@H]2C(=O)N[C@@H](CC(=O)O)C(=O)O)[C@@H](C)CC)NC(=O)[C@H]([C@@H](C)CC)NC(=O)[C@@H]2C[C@@H]3CCCC[C@@H]3N2C(=O)[C@@H]2CCCN2C(=O)[C@H](CC(C)C)NC(=O)[C@H](CO)NC(=O)[C@H](CCCNC(=N)N)NC(=O)[C@H](CO)NC1=O` [Example 29, AIC+SRSLP-(Oic)-I-(Pen)+IPD-OH (HCl Salt)]: 0.042 µM. Regarding “AIC+SRSLP-(Oic)-I-(Pen)+IPN-OH [Example 418]”, the IC50 stood at 0.0018 µM against human MASP1 and 0.13 µM on human MASP2. In the same order, the values of “PIC+SRS-((tBu)A)-PPI-(Pen)+IPD-NH2 [Example 9]” are 0.00114 µM and 0.05 µM. `CC[C@H](C)[C@@H]1NC(=O)[C@@H]2CCCN2C(=O)[C@@H]2CCCN2C(=O)[C@H](CC(C)(C)C)NC(=O)[C@H](CO)NC(=O)[C@H](CCCNC(=N)N)NC(=O)[C@H](CO)NC(=O)[C@@H](NC(=O)[C@@H](NC(=O)C(C)(C)CN)[C@@H](C)CC)CSSC(C)(C)[C@@H](C(=O)N[C@H](C(=O)N2CCC[C@H]2C(=O)N[C@@H](CC(=O)O)C(N)=O)[C@@H](C)CC)NC1=O` [Example 166, (3-Amino-2,2-dimethylpropionic acid)-IC+SRS-((tBu)A)-PPI-(Pen)+IPD-NH2] had an IC50 against human MASP2 of 0.13 µM. Consider “(2-Hydroxyacetyl)-IC+SRS-((tBu)A)-PPI-(Pen)+IPD-NH2 [Example 300]”, for which the figures for the IC50 against human MASP1 and at human MASP2 were 0.018 µM and 0.045 µM, respectively.

By IC50 is commonly meant the midpoint of a concentration-inhibition curve.
